The results in this text go back to US11040053B2, “Compositions and methods for activating “stimulator of interferon gene”13 dependent signalling” (CHINOOK THERAPEUTICS, INC., priority 2015, dated 2021).

By UniProt entry, the sequences of proteins in these tests, tags left out. Residues count along the entry.
UniProt Q86WV6, 140-379 G230A/H232R/R293Q limits assumed: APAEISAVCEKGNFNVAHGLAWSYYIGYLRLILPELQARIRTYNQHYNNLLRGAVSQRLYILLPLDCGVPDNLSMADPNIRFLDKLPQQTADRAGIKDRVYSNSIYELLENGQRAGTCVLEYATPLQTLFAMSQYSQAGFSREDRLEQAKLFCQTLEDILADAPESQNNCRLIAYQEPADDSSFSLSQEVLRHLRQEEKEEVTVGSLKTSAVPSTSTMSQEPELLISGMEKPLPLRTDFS
UniProt Q86WV6, 140-379 H232R: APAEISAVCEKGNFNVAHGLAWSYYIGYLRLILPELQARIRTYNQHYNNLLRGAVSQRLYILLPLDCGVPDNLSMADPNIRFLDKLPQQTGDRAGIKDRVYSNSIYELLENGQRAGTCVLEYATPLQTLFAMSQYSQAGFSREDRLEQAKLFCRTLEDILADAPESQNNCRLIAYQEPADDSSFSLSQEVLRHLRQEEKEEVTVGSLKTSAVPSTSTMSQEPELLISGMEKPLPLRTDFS
UniProt Q86WV6, 140-379: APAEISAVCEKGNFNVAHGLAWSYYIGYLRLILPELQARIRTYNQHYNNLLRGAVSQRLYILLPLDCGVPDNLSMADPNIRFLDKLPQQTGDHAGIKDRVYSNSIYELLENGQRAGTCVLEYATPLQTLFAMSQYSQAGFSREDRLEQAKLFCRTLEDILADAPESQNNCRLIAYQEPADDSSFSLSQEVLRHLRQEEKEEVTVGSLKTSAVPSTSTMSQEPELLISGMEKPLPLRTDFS

In one assay the target is T1, HAQ allele hSTING (Homo sapiens, UniProt Q86WV6, G230A/H232R/R293Q).
T1 construct: DNA encoding amino acids 140-379 (amino acid numbering corresponding to Swiss Prot Q86WV6); 6xHIS (N, cleaved yes); SUMO (N, cleaved yes); made in house; host or cells: Rosetta2 (DE3) E. coli
The assay can be described thus: Differential scanning fluorometry (DSF) binding to purified hSTING HAQ allele. Conditions: 1 mg/ml STING AA140-379, ligand 1 mM. How it is done: (§1) Cells were grown in lysogeny broth at 37° C. until a […] absorbance of 0.6 was reached. […] Cell pellets were re-suspended on ice in a buffer containing 50 mM Tris hydrochloride (Tris-HCl) pH 7.5, 500 mM sodium chloride (NaCl), 20 mM imidazole, 10% glycerol, 1 mM tris(2-carboxyethyl)phosphine hydrochloride (TCEP) and protease inhibitor tablet (Pierce) (Buffer A). Cells were lysed using an S-450D sonifier (Emmerson industrial) on ice. […] Protein was aliquoted, flash frozen in liquid nitrogen and stored at −80° C. until use.
(§2) The protein is heated in the presence of a dye that binds to and fluoresces in hydrophobic environments. The protein is thermally denatured by heating resulting in increased dye binding to the unfolded protein and fluorescence. The temperature midpoint (Tm) of a proteins denaturation is established by calculating the half maximal value of the denaturation curve. […]
(§3) Samples were placed in hard shell PCR plate (Bio-Rad). The fluorescence as a function of temperature was recorded in a CFX 96 real time PCR machine (Bio-Rad) reading on the HEX channel, excitation 450-490, emission 560-580 nm. […] The midpoint temperature (Tm) was calculated by fitting the curves of the fluorescence as a function of temperature to a Boltzmann sigmoidal function (Graph Pad Prism).
(In general: In DSF a fluorescence change marks the thermal transition of the protein.)

Assay [1] concerns the target T2, reference (REF) STING allele (Homo sapiens, UniProt Q86WV6).
T2 construct: endogenous in cells
In words: Cytokine transcript induction (qRT-PCR) in STING^REF/REF hPBMCs. It is filed as cell-based. The note with it: FIGS. 8A-B, 2 hours stimulation, 100 μM to 0.1 μM. On the procedure: The induction of type I interferon was measured in human primary blood mononuclear cells (hPBMCs) to evaluate the potency of mono- or di-F-CDN compounds as described herein. hPBMCs from two unique donors were used: one donor was homozygous for the wild type (WT) STING allele (STING^WT/WT) and the other donor was homozygous for the so-called reference (REF) STING allele (STING^REF/REF). The STING genotype of these donors was determined by PCR amplification and sequencing: genomic DNA was isolated from 10^4 hPBMCs using Quick Extract DNA Extraction Solution (Epicentre) and was used to amplify regions of exon 3, 6, and 7 of the human STING gene.
Cells were incubated at 37° C., 5% CO2 with concentrations ranging from 100 μM to 0.1 μM of each CDN. After 2 hours (FIGS. 7 and 8) or 2 hours and 6 hours (FIGS. 9-13) stimulation, cells were harvested by centrifugation and washed once with phosphate-buffered saline. Cellular RNA was isolated using the Aurum Total RNA 96 Kit and cDNA was synthesized using the iScript cDNA Synthesis Kit. Target and reference gene expression was assessed by real-time qRT-PCR using PrimePCR probe assays and the CFX96 gene cycler (all reagents and equipment from BioRad). Normalized IFNβ expression was expressed relative to untreated cells. […]
For orientation: Real-time PCR tracks product formation cycle by cycle.

The target in assay [2] is T3, hSTING(REF) (Homo sapiens, UniProt Q86WV6). In words: IFN-β luciferase reporter in HEK293T cells stably expressing hSTING(REF), digitonin permeabilization. The note with it: FIGS. 6A-B, 0.1 μM to 100 μM and 6.25 μM CDN. A general note: In a reporter assay the amount or activity of a reporter protein is the signal.
Another assay has as its target hSTING(WT) (Homo sapiens, UniProt Q86WV6, H232R). In words: Differential scanning fluorometry (DSF) binding to purified hSTING WT. Also noted: DNA encoding amino acids 140-379 (amino acid numbering corresponding to Swiss Prot Q86WV6); 6xHIS (N, cleaved yes); SUMO (N, cleaved yes); made in house; host or cells: Rosetta2 (DE3) E. coli. Conditions: 1 mg/ml STING AA140-379, ligand 1 mM. On the procedure: as §1, §2, §3

Assay [3] concerns the target T3, hSTING(REF). The assay can be described thus: Differential scanning fluorometry (DSF) binding to purified hSTING REF allele. On the set-up: DNA encoding amino acids 140-379 (amino acid numbering corresponding to Swiss Prot Q86WV6); 6xHIS (N, cleaved yes); SUMO (N, cleaved yes); made in house; host or cells: Rosetta2 (DE3) E. coli. Conditions: 1 mg/ml STING AA140-379, ligand 1 mM. On the procedure:
as §1, §2, §3

The structures appear in SMILES notation.

On to `Nc1nc2c(ncn2[C@@H]2O[C@@H]3COP(=O)(O)O[C@H]4[C@@H](O)[C@H](n5cnc6c(N)ncnc65)O[C@@H]4COP(=O)(O)O[C@H]3[C@H]2O)c(=O)[nH]1` [3'3'-(G)(A), reference compound], for which the “hSTING Tm Shift HAQ” value on HAQ allele hSTING came out at 10.5 °C. Also, in assay [1], the “relative normalized IFNβ expression, in words” value is given as “did not stimulate production of appreciable IFNβ transcript levels”. The “IFNβ luciferase reporter induction by hSTING(REF), in words” value on hSTING(REF) [2] is on record as “responded poorly”. In addition, the “hSTING Tm Shift WT” value on hSTING(WT) was 2 °C. Also, the “hSTING Tm Shift REF” value at hSTING(REF) [3] is 2.5 °C.
